The record followed here is patent US9700644B2, “One part, solids containing decontamination blend composition” (dated 2017).

This data set is described as follows: Storage stability of aspirin at 40° C. with or without citric acid coating. Particulars: 8 weeks of storage.

With `CC(=O)Oc1ccccc1C(=O)O`, the “% Aspirin Lost (8 weeks)” value was 8.4%.
